Amino acid sequences for entries named in this document (tags omitted).
UniProt P29275, whole entry: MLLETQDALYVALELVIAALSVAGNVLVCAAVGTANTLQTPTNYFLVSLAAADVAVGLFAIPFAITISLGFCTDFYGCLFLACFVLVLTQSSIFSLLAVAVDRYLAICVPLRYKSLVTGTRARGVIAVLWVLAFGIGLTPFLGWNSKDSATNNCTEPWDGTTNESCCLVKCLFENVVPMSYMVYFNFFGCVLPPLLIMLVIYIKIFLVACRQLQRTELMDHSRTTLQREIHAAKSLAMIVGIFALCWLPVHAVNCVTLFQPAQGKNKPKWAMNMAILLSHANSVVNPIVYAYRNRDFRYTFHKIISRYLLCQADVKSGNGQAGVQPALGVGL
UniProt P0DMS8, whole entry: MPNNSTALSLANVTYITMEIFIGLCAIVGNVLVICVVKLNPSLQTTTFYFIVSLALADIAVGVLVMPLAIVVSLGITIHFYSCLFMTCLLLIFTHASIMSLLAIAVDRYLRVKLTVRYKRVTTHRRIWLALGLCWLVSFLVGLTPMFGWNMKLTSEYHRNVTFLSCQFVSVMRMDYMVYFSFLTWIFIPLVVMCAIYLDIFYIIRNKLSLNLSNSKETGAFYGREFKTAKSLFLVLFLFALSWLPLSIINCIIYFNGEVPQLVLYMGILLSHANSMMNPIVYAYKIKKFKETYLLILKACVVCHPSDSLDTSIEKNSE

In patent US7109202B2, “Aminothaizoles and their use as adenosine receptor antagonists” (Novartis AG, priority 2000, dated 2006):

Assays:
[1] = target: human adenosine A2b receptor (Homo sapiens, UniProt P29275); assay: Adenosine A2b receptor reporter gene assay (luciferase, CHO-A2b cells); settings: read-out: KB value in the reporter gene assay; CHO cells transfected with human A2b receptor and pCRE-LUCI; NECA as agonist; KB from shift of the curve at 100 nM or 1 μM antagonist
adenosine A3 receptor = adenosine A3 receptor (Homo sapiens, UniProt P0DMS8); settings: read-out: KI value in adenosine A3 receptor assay; assay as described in WO 99/64418

## N#Cc1cccc(-c2nc(Nc3ccncc3)sc2-n2ccnc2)c1
[1]
  Kb: 26.5 nM

## Fc1cccc(-c2nc(Nc3ccncc3)sc2-n2cncn2)c1
Adenosine A3 receptor
  Ki: 22 nM

## COc1cccc(Nc2nc(-c3cccc(C#N)c3)c(-n3cncn3)s2)n1
Adenosine A3 receptor
  Ki: 11.5 nM

## Cc1ccc(C(=O)Nc2nc(-c3cccc(C#N)c3)c(-n3cncn3)s2)s1
[1]
  Kb: 24 nM
